ClpP mod = qHTS Assay for Activators of ClpP; ATP-dependent Clp protease proteolytic subunit (Bacillus subtilis (strain 168)), P80244; purified B. subtilis ClpP, FRET peptide cleavage, 20 min; Potency, µM (top dose mostly 57.5 µM); hit rate 1.9% among 340,000; active = well fitted falling curve with a large enough effect; inconclusive = small, poorly fitted or top-dose-only effect; inactive = no such curve, though single readings can be large or run the other way; note: the source files actives as falling curves though it sought activators and does not explain the sign; nearly all actives have a fitted effect of over 65% in size
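ClpP 10 microg/mL final, pH 8 Tris/KCl buffer with BSA, glycerol, Tween-20; compound pinned in; FRET-FV substrate; RT 20 min; Ex320/Em430; ΔFRET vs ADEP 5.8 microM, DMSO, no enzyme.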
IL-2 act = activators of IL-2; hit rate 0.065% among 360,000; activation, % (series mostly up to about 46 µM); AID 652025; IL-2 activation reporter assay, cell-based qHTS; stimulated with anti-CD3/CD4/CD28 beads; in transgenic mouse T cells; in the data active = activation above about 50%; inconclusive = mostly about 30% to 49%
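Unstimulated transgenic mouse T cells; 60-min compound exposure; bead-based TCR/CD4/CD28 stimulation; 18 h culture, 37 degrees C; dual fluorescence (EGFP, DsRed) plate cytometry.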
A549 tox = counter-screen for Nrf2 inhibitors: cytotoxicity in A549 cells | A549 ARE-Fluc cells, CellTiter-Fluor viability, 18-24 h | Potency, µM (top dose mostly 46 µM), most hits filed as inhibitors | hit rate 0.16% among 390,000 | AID 504648
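A549 ARE_Fluc cells in 5% FBS OPTI-MEM were exposed to compounds in concentration-response for 18-24 h at 37 deg C. Viability was read by CellTiter-Fluor fluorescence (Ex 405/Em 525) after 30 min, before the luciferase read.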
Nrf2 inh = Nrf2 pathway inhibition; A549 ARE-Fluc reporter, luciferase luminescence, 18-24 h; Potency, µM (titrated, usually from 46 µM), usual class: inhibitors; hit rate 2.1% among 360,000; AID 504444; note: nearly all actives have a fitted effect of over 60% in size
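Nrf2 activity is the BugLite luminescence, read 15 min after reagent at room temperature, following CellTiter-Fluor cytotoxicity readout (30 min, 37C). Compound titrations were applied for 18-24 h to 5000 A549 ARE_Fluc cells/well in 5% FBS OPTI-MEM.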
miR-21 reporter = miR-21 reporter, rising signal | AID 2288 | HeLa miR-21 FLuc reporter, luciferase, 48 h | 340,000 tested, under 10 active | Potency, µM (titrated, usually from 38.3 µM); active = well fitted rising curve with a large enough effect; inconclusive = small, poorly fitted or top-dose-only effect; inactive = no such curve, though single readings can be large or run the other way;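 also: miR-21 action dims this reporter so a rising signal means less miR-21 action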
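HeLa cells endogenously expressing miR-21, stably carrying CMV-driven firefly luciferase with a downstream miR-21 binding site, 2000 cells/well. Titrations up to approximately 40 uM, 48 hours; luciferase luminescence read.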
Nrf2 ARE act = Nrf2 pathway activation. AREc32 ARE-luciferase reporter (MCF7-derived line), luminescence, 24 h. Potency, µM (top dose mostly 46.1 µM), most hits filed as activators. hit rate 0.31% among 410,000. AID 624171; note: nearly all actives have a fitted effect of over 65% in size
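For detection, Steady-Glo was added and plates sat 30 min at RT; before that, AREc32_Fluc cells grown overnight in OPTI-MEM/5% FBS had been treated with 23 nL compound for 24 hr at 37 deg C.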
Numbers stand for hits; - = inactive; ? = inconclusive; . = not tested or not shown; [ ] = dose if it differs, or a comment. The list is not random: actives were taken first. Their share in the collection is about 3.7%. Unless noted, calls come from the whole dose curve; as a rule, active = well fitted curve in the direction sought with a large enough effect; inconclusive = small, poorly fitted or top-dose-only effect, or another doubt; inactive = no such curve, though single readings can be large; an effect the other way counts as inactive or inconclusive.

SMILES	ClpP mod	IL-2 act	A549 tox	Nrf2 inh	miR-21 reporter	Nrf2 ARE act
Cc1ccc(/C=C/C(=O)Nc2cccc(S(=O)(=O)N3CCOCC3)c2)o1	-	-	-	-	-	-
Cc1ccc(Nc2ncc(C(=O)N3CCN(c4ccc(F)cc4)CC3)c3ccccc23)cc1Cl	-	.	-	-[9.27 µM]	?	-
COc1cccc(NC(=O)N2CCC(n3c(C)nc4cccnc43)CC2)c1	-	.	-	.	-	-
COc1cc(/C=C/C(=O)c2ccc(O)cc2)ccc1OCC#N	-	-	?	26µM	?	?
COc1cccc(C(=O)/C=C/c2ccc(OCC#N)c(OC)c2)c1	-	-	-	?	?	?
Cc1cccc(-c2nc(SCC(=O)NCc3ccco3)c3c(=O)n(C)c(=O)n(C)c3n2)c1	-	.	-	.	-	-
CC1CCc2cc(F)cc3c(O)c(C(=O)NCC4CCCO4)c(=O)n1c23 (stereo not drawn)	?	-	-	16µM	-	-
CCCn1c(=O)c(C(=O)NCC2CCCO2)c(O)c2ccccc21 (stereo not drawn)	.	-	-	-	-	-
O=c1c(Cl)c(N/N=C/c2ccc(Br)cc2)cnn1-c1ccccc1	?	-	-	?	-	7.1µM
CNc1cnn(-c2ccccc2)c(=O)c1Cl	-	-	-	-	-	-
CCN(C(=O)CSc1cc(-c2ccccc2)c2ccc(OC)cc2n1)C1CCS(=O)(=O)C1 (stereo not drawn)	-	-	?	23µM	-	-
CCN(C(=O)CSc1nc2ccc(C)cc2[nH]1)C1CCS(=O)(=O)C1 (stereo not drawn)	-	-	-	-	.	-
CCN(C(=O)CSc1nc(-c2ccccc2)c(-c2ccccc2)[nH]1)C1CCS(=O)(=O)C1 (stereo not drawn)	25µM	-	-	?	-	-
Cn1cc(S(=O)(=O)c2ccc(Cl)cc2)c(=O)c2cc(F)c(N3CCOCC3)cc21	-	.	-	-	-	-
COc1cccc(-c2cn3ncsc3n2)c1	-	.	-	?	-	-
Cc1ccc(CNC(=O)c2cc3cc(C)ccc3n2C)cc1	-	.	-	?	-	-
Cn1ccc2cc(S(=O)(=O)N3CCN(C(=O)Nc4cccc(F)c4)CC3)ccc21	-	.	-	.	-	-
COc1ccc(NC(=O)CCc2c(C)nn(-c3ccc(N4CCCC4)nn3)c2C)cc1Cl	-	.	-	?	-	-
O=C(Cc1cccc2ccccc12)Nc1ccc(-c2cc3ccccc3oc2=O)cc1	?	-	-	5.8µM	-	-
C/C(=N\NC(=O)c1ccc(Cl)c(Cl)c1)c1ccc(Br)s1	-	-	-	7.3µM	-	-
N#Cc1nc(N)nc(N2CCCCC2)n1	-	.	-	18µM	.	.
Cc1ccccc1CN(c1ccc(C(=O)N2CCc3ccccc3C2)cc1)S(C)(=O)=O	-	-	-	15µM	-	-
CNC(=O)c1ccc(N(Cc2ccccc2C)S(C)(=O)=O)cc1	-	-	-	-	-	-
COc1ccc(C)cc1NC(=O)c1cccc(-c2ccc(OC(C)=O)cc2)c1	-	-	-	16µM	-	-
COc1ccc(CN2C(=O)C(NC(=O)c3ccccc3OC)(C(F)(F)F)N=C2c2ccccc2)cc1 (stereo not drawn)	-	.	-	?	-	-
SMILES	ClpP mod	IL-2 act	A549 tox	Nrf2 inh	miR-21 reporter	Nrf2 ARE act
Cc1cccc(N2CCN(C(=O)C3CCN(Cc4nc(-c5ccc(Cl)cc5)oc4C)CC3)CC2)c1C	-	.	-	.	-	-
CC(=O)Nc1ccc(S(=O)(=O)NC2(C(F)(F)F)C(=O)Nc3c2c(=O)[nH]c(=O)n3-c2ccc(C)c(C)c2)cc1 (stereo not drawn)	-	.	-	-	-	-
CN(Cc1ccccc1)S(=O)(=O)c1ccc2[nH]c3c(c2c1)CCCCC3	?	.	-	16µM	-	-
COc1ccc(NS(=O)(=O)c2ccc3[nH]c4c(c3c2)CCCCC4)cc1	-	.	?	16µM	-	-
CC(=O)c1cccc(NS(=O)(=O)c2ccc3[nH]c4c(c3c2)CCCCC4)c1	-	.	-	16µM	?	-
O=C(Nc1ccc2[nH]c3c(c2c1)CCCC3)c1ccco1	-	-	-	?	-	13µM
CNc1ccc(/C=C/c2ccccc2)cc1	-	.	.	.	.	.
COc1ccc(-c2cc3nc(C)c(CCC(=O)Nc4ccc(F)cc4F)c(C)n3n2)c(OC)c1	-	.	-	-	-	-
Cc1ccc(CCNC(=O)c2ccc(CSCc3ccc(C)cc3)o2)cc1	-	.	-	.	-	-
COc1ccc(OC)c(CNS(=O)(=O)c2ccc3[nH]c4c(c3c2)CCCCC4)c1	-	.	-	16µM	-	-
COc1ccc(CCNC(=O)C(=O)Nc2ccc(C)cc2)cc1OC	-	.	-	.	-	-
CCCc1cc(=O)n2[nH]c(-c3ccc(Cl)cc3)cc2n1	-	-	-	?	-	-
COCc1cc(=O)n2[nH]c(C)cc2n1	18µM	-	-	?	-	-
COCc1cc(=O)n2[nH]c(-c3cccc(Br)c3)cc2n1	?	-	-	.	-	-
COCc1cc(=O)n2[nH]c(C(C)(C)C)cc2n1	.	-	-	-	-	-
CCCc1cc(=O)n2[nH]c(-c3ccccc3)cc2n1	22µM	-	?	.	-	-
O=c1cc(-c2ccccc2)nc2cc(-c3ccc(Br)cc3)[nH]n12	?	-	-	-	-	-
CCCc1cc(=O)n2[nH]c(-c3ccc(C)cc3)cc2n1	14µM	-	-	.	-	-
COCc1cc(=O)n2[nH]c(-c3ccccc3)cc2n1	25µM	-	-	.	-	-

Bioassay records deposited in PubChem by National Center for Advancing Translational Sciences (NCATS).
